Laboratory results as given in patent US20120129722A1 (DONGGUK UNIVERSITY INDUSTRY ACADEMIC COOPERATION FOUNDATION, published 2012).

Target: T1, human CDK9 (human)
T1 construct: It is probably nucleotide, so it is not used as a protein entry; CDK9 was used both immobilised in sol-gel spots and as the soluble reactant; also called recombinant human CDK9
Assay: sol-gel protein chip (composition 3), immobilised CyclinT1, soluble CDK9 detected with anti-CDK9 and Cy3 secondary antibody, in presence of RNA aptamers

B1: human Cyclin T1 (other, UniProt O60563 1-266, looked up)
chain: MEGERKNNNKRWYFTREQLENSPSRRFGVDPDKELSYRQQAANLLQDMGQRLNVSQLTINTAIVYMHRFYMIQSFTQFPGNSVAPAALFLAAKVEEQPKKLEHVIKVAHTCLHPQESLPDTRSEAYLQQVQDLVILESIILQTLGFELTIDHPHTHVVKCTQLVRASKDLAQTSYFMATNSLHLTTFSLQYTPPVVACVCIHLACKWSNWEIPVSTDGKHWWEYVDATVTLELLDELTHEFLQILEKTPNRLKRIWNWRACEAAKK
notes: domain: cyclin box; It was immobilised in sol-gel spots on a 96-well plate
B1: binds.
